From EP4834896A1, “QUATERNARY AMMONIUM COMPOUND AND PHARMACEUTICAL USE THEREOF” (dated 2026)

Columns and labels:
SD rats [1] = test: Pharmacodynamic test (Test Example 3): neuromuscular blockade, sciatic nerve-gastrocnemius muscle tension in anesthetized rats; conditions: drug dose causing 95% neuromuscular blockade; male SD rats, injection via jugular vein; linear regression of log dose vs probit of % inhibition of muscle twitch
Procedure: Samples: Compound 5A, Compound 5B, and Control Compound 3, all prepared in physiological saline.
(§1) SD rats (source: Beijing Hfk Bioscience Co., Ltd), male, weighing 200-350 g before the experiment, maintained under a 12-h light/dark cycle, and housed in SPF conditions.
(§2) • 1) The rats were weighed. Ethyl carbamate was prepared as a 25% urethane solution and injected intraperitoneally at 1 mL/100 g for anesthesia. After the animals lost consciousness and reflexes, each rat was fixed in a prone position on a foam board, and the right hindlimb area was depilated. The trachea and external jugular veins were dissected, followed by tracheal intubation and venous cannulation, respectively, and an artificial ventilator was prepared. • 2) Posterior to the hip joint, an incision was made in the skin over the lateral edge of the femur at the mid-thigh level. Muscles were bluntly dissected using a glass dissecting needle to expose the sciatic nerve. The skin of the lower leg was incised at the ankle joint, the anterior ligament of the ankle joint was transected, and the gastrocnemius muscle was isolated. […] The muscle tension curve was recorded. • 4) After the signals stabilized, different doses of different test compounds were injected via the jugular vein, and the inhibition of muscle tension after administration was recorded. […]

SD rats [2] = test: Pharmacodynamic test (Test Example 4): inhibition of muscle tension at a single dose in anesthetized rats; conditions: 0.3 mg/kg via jugular vein, male SD rats, gastrocnemius muscle tension
Procedure: (§3) Samples: Compound 5B, Compound 15, and Control Compound 3, all prepared in physiological saline.
as §1
• 1) The rats were weighed. Ethyl carbamate was prepared as a 25% urethane solution and injected intraperitoneally at 1 mL/100 g for anesthesia. After the animals lost consciousness and reflexes, each rat was fixed in a prone position on a foam board, and the right hindlimb area was depilated. The trachea and external jugular veins were dissected, followed by tracheal intubation and venous cannulation, respectively, and an artificial ventilator was prepared. • 2) Posterior to the hip joint, an incision was made in the skin over the lateral edge of the femur at the mid-thigh level. Muscles were bluntly dissected using a glass dissecting needle to expose the sciatic nerve. The skin of the lower leg was incised at the ankle joint, the anterior ligament of the ankle joint was transected, and the gastrocnemius muscle was isolated. The tendon of the gastrocnemius muscle at the ankle was ligated, and the tendon was transected distal to the ligature. • 3) A biological function experimental system was used to collect and record signals. […]

histamine release = test: Histamine release assay (Test Example 5): plasma histamine before and after i.v. administration, LC-MS/MS; conditions: rat plasma histamine after / before administration; 20 mg/kg intravenous, blood 1 min after administration; * P < 0.05
Procedure: as §3, §1
• 1) The rats were weighed. Ethyl carbamate was prepared as a 25% urethane solution and injected intraperitoneally at 1 mL/100 g for anesthesia. After the animals lost consciousness and reflexes, each rat was fixed in a prone position on a foam board, and the right hindlimb area was depilated. One jugular vein was cannulated for drug injection, and the other jugular vein was cannulated for blood collection. • 2) After stabilization for 15 min, 0.5 mL of venous blood was collected into an EP tube containing heparinized physiological saline (1 : 9), mixed well, cooled, and centrifuged at 1000 rpm for 10 min at 4°C. 0.2 mL of the upper plasma layer was collected and cryopreserved in dry ice. After stabilization for 15 min, the test drug was injected intravenously at a dose of 20 mg/kg. […] 0.2 mL of the upper plasma layer was collected and cryopreserved in dry ice. • 3) After processing the above plasma samples, the histamine content in the rat plasma before and after administration was determined by LC-MS/MS. […]

SD rats [3] = test: Pharmacodynamic test (Test Example 1): neuromuscular blockade, sciatic nerve-gastrocnemius muscle tension in anesthetized rats; conditions: drug dose causing 95% neuromuscular blockade; male SD rats, injection via jugular vein; non-linear regression of log dose vs % inhibition of muscle tension
Procedure: Samples: Compound 4, Compound 5, Control Compound 1, and Control Compound 2, all prepared in physiological saline.
as §1
as §2, with “of the” for “of different”

Histamine increase fold (histamine release)	SMILES	ED95 (SD rats [1])	Muscle tone inhibition % (SD rats [2])	ED95 (SD rats [3])
About 3.0*	COc1ccc(C[C@@H]2c3cc(OC)c(OC)cc3CC[N@@+]2(C)CCCOC(=O)/C=C/C(=O)OCCC[N+]2(Cc3ccc(OC)c(OC)c3)CCOCC2)cc1	0.56 mg/kg	45.77%	
	COc1ccc(C[C@@H]2c3cc(OC)c(OC)cc3CC[N@@+]2(C)CCCOC(=O)/C=C/C(=O)OCCC[N+](C)(C)Cc2ccccc2)cc1			0.93 mg/kg
